According to patent publication US5192747A, “Anticoagulant peptides” (Merrell Dow Pharmaceuticals Inc., priority 1991, dated 1993):

Target: Bovine thrombin (Bos taurus, UniProt P00735)
Test: thrombin induced fibrin clot inhibition assay
Type: biochemical

| SMILES | IC50 [µM] | IC50 (IC50 = peptide concentration giving half of control turbidity (405 nm), thrombin 0.2 pmol, diluted plasma (1:10), pH 7.4, 20° C., read-out: In vitro potency) [µM] |
| --- | --- | --- |
| CC[C@H](C)[C@H](NC(=O)[C@H](CCC(=O)O)NC(=O)[C@H](CCC(=O)O)NC(=O)[C@H](Cc1ccccc1)NC(=O)[C@H](CC(=O)O)NC(=O)CN)C(=O)N[C@@H](CCC(=O)O)C(=O)N[C@@H](CCC(=O)O)C(=O)N[C@@H](Cc1ccc(O)cc1)C(=O)N[C@@H](CC(C)C)C(=O)N[C@@H](CCC(N)=O)C(=O)O [compound 2, H--Gly--Asp--Phe--Glu--Glu--Ile--Glu--Glu--Tyr--Leu--Gln--OH] | 25 to 200 | – |
| CC[C@H](C)[C@H](NC(=O)[C@@H]1CCCN1C(=O)[C@H](CCC(=O)O)NC(=O)[C@H](Cc1ccc(O)cc1)NC(=O)CCC(=O)O)C(=O)N1CCC[C@H]1C(=O)N[C@@H](CCC(=O)O)C(=O)N[C@@H](C)C(=O)N[C@@H](CC1CCCCC1)C(=O)N[C@@H](CC(N)=O)C(=O)O [compound 6, Suc--Tyr--Glu--Pro--Ile--Pro--Glu--Ala--Cha--Asn--OH] | < 25 | – |
| CC[C@H](C)[C@H](NC(=O)[C@@H]1CCCN1C(=O)[C@H](Cc1ccc2ccccc2c1)NC(=O)CCC(=O)O)C(=O)N1CCC[C@H]1C(=O)N[C@@H](CCC(=O)O)C(=O)N[C@@H](CCC(=O)O)C(=O)N[C@@H](C)C(=O)N[C@@H](CC1CCCCC1)C(=O)N[C@H](CCC(=O)O)C(=O)O [compound 9, Suc--Nap--Pro--Ile--Pro--Glu--Glu--Ala--Cha--D-Glu--OH] | – | < 25 |
| CC[C@H](C)[C@H](NC(=O)[C@@H]1CCCN1C(=O)[C@H](CCC(=O)O)NC(=O)[C@H](Cc1ccc(O)cc1)NC(=O)CCC(=O)O)C(=O)N1CCC[C@H]1C(=O)N[C@@H](CCC(=O)O)C(=O)N[C@@H](C)C(=O)N[C@@H](CC1CCCCC1)C(=O)N[C@H](CCC(=O)O)C(=O)O [compound 13, Suc--Tyr--Glu--Pro--Ile--Pro--Glu--Ala--Cha--D-Glu--OH] | < 25 | – |

Where two headings read alike, the source gives them in different places.
